These results are taken from ChEMBL document CHEMBL3882247, “Use of dibenzofuranone derivatives to inhibit kinases” (2013).

The chains behind the UniProt entries cited, without tags or fusion partners.
UniProt P19784, whole entry: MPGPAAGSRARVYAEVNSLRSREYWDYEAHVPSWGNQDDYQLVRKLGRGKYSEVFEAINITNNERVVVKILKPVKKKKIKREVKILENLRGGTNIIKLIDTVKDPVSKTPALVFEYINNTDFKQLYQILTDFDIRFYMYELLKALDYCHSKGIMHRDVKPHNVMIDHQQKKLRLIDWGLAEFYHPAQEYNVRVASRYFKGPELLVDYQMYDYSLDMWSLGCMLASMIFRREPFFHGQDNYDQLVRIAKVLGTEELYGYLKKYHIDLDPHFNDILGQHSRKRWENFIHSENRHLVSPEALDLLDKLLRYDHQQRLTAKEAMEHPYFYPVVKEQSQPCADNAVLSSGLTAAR
UniProt P67870, whole entry: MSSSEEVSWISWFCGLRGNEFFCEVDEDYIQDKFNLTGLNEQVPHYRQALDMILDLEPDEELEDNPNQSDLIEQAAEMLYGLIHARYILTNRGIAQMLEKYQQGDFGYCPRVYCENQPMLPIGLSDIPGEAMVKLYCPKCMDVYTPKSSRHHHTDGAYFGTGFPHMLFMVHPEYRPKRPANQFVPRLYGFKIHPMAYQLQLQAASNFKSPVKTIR
UniProt P68400, whole entry: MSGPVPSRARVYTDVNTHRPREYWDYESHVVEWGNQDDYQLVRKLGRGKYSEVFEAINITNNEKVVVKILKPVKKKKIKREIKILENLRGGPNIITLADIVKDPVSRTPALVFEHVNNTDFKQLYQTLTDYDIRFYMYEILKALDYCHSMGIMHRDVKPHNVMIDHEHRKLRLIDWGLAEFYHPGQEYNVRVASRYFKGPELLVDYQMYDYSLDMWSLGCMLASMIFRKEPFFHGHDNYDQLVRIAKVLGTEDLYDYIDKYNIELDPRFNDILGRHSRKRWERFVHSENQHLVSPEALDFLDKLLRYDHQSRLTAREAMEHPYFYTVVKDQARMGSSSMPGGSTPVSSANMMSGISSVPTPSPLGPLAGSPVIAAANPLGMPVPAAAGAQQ

The experiment addresses Casein kinase II (Homo sapiens, UniProt P19784+P67870+P68400). The experiment can be described thus: Inhibition of CK2 (unknown origin) using REEETEEE as substrate after 15 mins in presence of [gamma-32P]-ATP. The class given is protein-complex assay.

Structures are written as SMILES.

With `Cc1cc(O)c2c(c1)C(=O)c1cc(O)cc(O)c1C2=O` [EMODIN], the IC50 is 1000 nM.
